Measurements reported in publication PMC8025677 (Cell, 2020).
Where two headings read alike, the source gives them in different places.

Test system: electrically evoked 5-HT release in dorsal striatum slices
Design: species or system mouse
Details: bath application

| SMILES | effect on amplitude and decay kinetics of fluorescence transients (1 μM) | effect on amplitude and decay kinetics of fluorescence transients (10 μM) |
| --- | --- | --- |
| COC(=O)[C@H]1[C@H]2C[C@@H]3c4[nH]c5cc(OC)ccc5c4CCN3C[C@H]2C[C@@H](OC(=O)c2cc(OC)c(OC)c(OC)c2)[C@@H]1OC [reserpine] | neither amplitude nor decay kinetics of fluorescence transients was affected |  |
| COC(=O)[C@H]1[C@@H](OC(=O)c2ccccc2)C[C@@H]2CC[C@H]1N2C [cocaine] |  | neither amplitude nor decay kinetics of fluorescence transients was affected |
